# Laboratory results from US8962641B2, “Pyrimidine-substituted pyrrolidine derivatives, pharmaceutical compositions and uses thereof” (Boehringer Ingelheim International GmbH, priority 2013, dated 2015).
# Sequences of proteins named here, by UniProt entry; tags and fusion partners are left off. Residues count along the entry.
# UniProt O00763, 129-2458 limits assumed: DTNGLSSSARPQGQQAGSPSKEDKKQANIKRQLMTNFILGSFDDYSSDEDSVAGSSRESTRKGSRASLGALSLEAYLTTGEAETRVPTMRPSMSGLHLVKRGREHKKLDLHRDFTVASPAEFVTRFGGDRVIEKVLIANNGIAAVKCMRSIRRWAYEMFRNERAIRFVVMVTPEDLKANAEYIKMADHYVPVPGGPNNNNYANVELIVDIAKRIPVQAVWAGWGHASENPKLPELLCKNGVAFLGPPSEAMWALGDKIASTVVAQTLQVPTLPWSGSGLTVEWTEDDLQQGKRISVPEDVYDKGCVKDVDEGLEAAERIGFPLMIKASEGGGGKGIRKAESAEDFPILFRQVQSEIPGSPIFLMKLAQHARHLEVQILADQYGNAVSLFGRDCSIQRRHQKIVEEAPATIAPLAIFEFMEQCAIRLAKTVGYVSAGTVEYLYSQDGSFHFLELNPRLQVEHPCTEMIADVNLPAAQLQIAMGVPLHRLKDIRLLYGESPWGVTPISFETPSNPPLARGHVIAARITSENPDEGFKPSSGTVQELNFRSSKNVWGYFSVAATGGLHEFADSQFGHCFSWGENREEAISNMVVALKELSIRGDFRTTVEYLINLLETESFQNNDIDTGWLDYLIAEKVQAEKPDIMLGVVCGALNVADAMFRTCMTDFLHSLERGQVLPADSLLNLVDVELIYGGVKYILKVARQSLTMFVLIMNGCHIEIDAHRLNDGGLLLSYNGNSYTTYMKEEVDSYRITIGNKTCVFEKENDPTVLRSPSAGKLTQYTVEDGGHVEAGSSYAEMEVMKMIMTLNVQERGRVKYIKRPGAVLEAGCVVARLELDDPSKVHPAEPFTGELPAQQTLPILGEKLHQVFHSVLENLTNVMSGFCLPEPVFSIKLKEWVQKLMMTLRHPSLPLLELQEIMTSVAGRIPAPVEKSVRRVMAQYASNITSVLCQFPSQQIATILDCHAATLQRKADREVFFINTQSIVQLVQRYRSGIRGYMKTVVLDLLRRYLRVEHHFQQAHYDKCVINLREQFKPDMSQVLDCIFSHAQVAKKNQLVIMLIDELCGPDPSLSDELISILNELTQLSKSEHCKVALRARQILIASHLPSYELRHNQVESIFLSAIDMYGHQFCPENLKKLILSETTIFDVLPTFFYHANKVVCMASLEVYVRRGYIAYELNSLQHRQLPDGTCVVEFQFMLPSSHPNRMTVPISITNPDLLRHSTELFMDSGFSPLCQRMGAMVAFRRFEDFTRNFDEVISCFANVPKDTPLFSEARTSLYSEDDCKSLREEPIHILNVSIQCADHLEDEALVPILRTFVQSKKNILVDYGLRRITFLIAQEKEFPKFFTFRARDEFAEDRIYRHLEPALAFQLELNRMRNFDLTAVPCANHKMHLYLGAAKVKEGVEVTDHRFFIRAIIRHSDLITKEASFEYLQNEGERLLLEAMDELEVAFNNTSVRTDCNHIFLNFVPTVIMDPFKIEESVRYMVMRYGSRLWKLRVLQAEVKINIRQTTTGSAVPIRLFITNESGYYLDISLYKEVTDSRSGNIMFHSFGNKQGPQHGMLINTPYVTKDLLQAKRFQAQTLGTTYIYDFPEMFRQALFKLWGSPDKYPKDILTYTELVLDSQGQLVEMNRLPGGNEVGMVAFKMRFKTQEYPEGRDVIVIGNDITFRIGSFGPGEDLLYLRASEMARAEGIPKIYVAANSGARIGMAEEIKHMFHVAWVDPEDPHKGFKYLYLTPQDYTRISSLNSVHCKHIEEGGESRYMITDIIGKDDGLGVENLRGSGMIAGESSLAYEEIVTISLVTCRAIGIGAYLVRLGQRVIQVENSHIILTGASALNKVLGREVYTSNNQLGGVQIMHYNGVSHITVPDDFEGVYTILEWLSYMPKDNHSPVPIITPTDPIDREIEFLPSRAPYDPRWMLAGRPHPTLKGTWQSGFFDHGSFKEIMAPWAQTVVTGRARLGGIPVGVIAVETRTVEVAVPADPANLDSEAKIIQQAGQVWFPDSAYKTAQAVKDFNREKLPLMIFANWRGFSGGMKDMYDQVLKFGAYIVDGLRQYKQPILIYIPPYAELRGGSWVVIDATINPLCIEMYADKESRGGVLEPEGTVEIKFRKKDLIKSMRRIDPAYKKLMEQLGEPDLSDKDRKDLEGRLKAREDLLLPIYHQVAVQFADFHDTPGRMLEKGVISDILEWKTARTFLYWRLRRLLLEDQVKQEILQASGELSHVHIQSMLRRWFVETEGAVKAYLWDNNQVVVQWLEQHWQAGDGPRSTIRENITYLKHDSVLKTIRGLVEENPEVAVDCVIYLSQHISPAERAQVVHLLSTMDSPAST
# Target: human ACC2 (Homo sapiens (Human), UniProt O00763)
# Assay: ACC2 assay (spectrophotometric 384 well assay, NADH-linked kinetic method)
# Conditions: hACC2 construct lacking 128 N-terminal amino acids; coupled lactate dehydrogenase/pyruvate kinase reaction, 340 nm, 25° C.
row,SMILES,IC50
1,CCCOc1cnc(N2CC[C@@H](Oc3ccc([C@H](C)NC(C)=O)cc3)C2)nc1,1010 nM
2,CCc1cnc(N2CC[C@@H](Oc3ccc([C@H](C)NC(C)=O)cc3)C2)nc1,1030 nM
3,CCc1cnc(N2CC[C@H](Oc3ccc([C@H](C)NC(C)=O)cc3)C2)nc1,2180 nM

# Now those with a lower IC50, led by results:
row,IC50,SMILES
1,277 nM,COC1CCCN(c2ncc(Cl)c(N3CC[C@@H](Oc4ccc([C@H](C)NC(C)=O)cc4)C3)n2)C1 (stereo partly drawn)
2,251 nM,CC(=O)N[C@@H](C)c1ccc(O[C@@H]2CCN(c3ncnc(N4CCCC4)c3C)C2)cc1
3,77 nM,CCC(=O)N[C@@H](C)c1ccc(O[C@@H]2CCN(c3ncnc(OCC4CC4)c3OC)C2)cc1
